Laboratory results reported in PubChem BioAssay (Tox21).
Several values for one entry are separate records, joined by “and”; a condition that tells them apart may be missing. Identical values can stand only once. The entries are a selection whose mix differs from that of the whole data set. Inconclusive results are not listed. Activity calls are given as the source filed them. Unless noted, calls follow the shape of the dose curve; as a rule, active = well fitted curve in the direction sought with a large enough effect in the repeat runs; inconclusive = weak or mixed curves; inactive = no such curve, though single readings can be large; an effect the other way counts as inactive or inconclusive.

Experiments:
[1] = qHTS assay for small molecule agonists of the p53 signaling pathway (AID 651631; calls by dose curve; also: nearly all actives have a fitted effect of over 15% in size); settings: HCT-116 p53RE-bla reporter, beta-lactamase FRET ratio, 16 h; at 73.3 µM (top of the series) unless noted
Outline: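 HCT-116 p53RE-bla reporter line, 16 h compound treatment at 37 °C, then fluorescence after 2 h with B/G FRET substrate.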

[2] = qHTS assay for small molecule agonists of the p53 signaling pathway - cell viability (AID 651633; calls by dose curve; also: nearly all actives have a fitted effect of over 30% in size); settings: p53RE-bla HCT-116 viability, ATP luminescence, 16 h; at 83.3 µM (top of the series) unless noted
Outline: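 p53RE-bla cells, seeded at 4,000 per well and rested 5 h at 37 C/5% CO2, received compounds in DMSO for 16 h at 37 C. CellTiter-Glo was then added, and luminescence was read after 30 min at room temperature to gauge cytotoxicity.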

[3] = qHTS assay for small molecules that induce genotoxicity in human embryonic kidney cells expressing luciferase-tagged ATAD5 - cell viability (AID 651634; calls by dose curve; also: nearly all actives have a fitted effect of over 25% in size)
Outline: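 Cytotoxicity counter-readout: after 15.5 hr compound treatment at 37C, live-cell protease activity in ATAD5-luciferase HEK293T cells measured by CellTiter-Fluor fluorescence, 30 min development at 37C.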

[4] = qHTS assay for small molecule disruptors of the mitochondrial membrane potential - cell viability (AID 720634; calls by dose curve;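 also: human HepG2 liver cancer cells; nearly all actives have a fitted effect of over 20% in size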)
Outline: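 Cytotoxicity was quantified from ATP content by CellTiter-Glo luminescence in the same wells as the MMP dye read-out. HepG2 (2,000 cells/well) were plated overnight and exposed to compounds for 1 hr at 37 C.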

[5] = qHTS assay to test for compound auto fluorescence at 535 nm (green) in HepG2 cells (AID 720675); settings: green autofluorescence 485/535 nm, 1 h
[6] = qHTS assay to test for compound auto fluorescence at 460 nm (blue) in HEK293 cells (AID 720678); settings: blue autofluorescence 405/460 nm
Outline: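 Blue-channel (Ex/Em 405/460 nm) intensity measured in HEK293 cultures after overnight compound exposure at 37C; signal expressed relative to triamterene. Cells plated 2,000 per well in 10% dialyzed FBS medium and allowed 4-5 hr to attach.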

[7] = qHTS assay to test for compound auto fluorescence at 590 nm (red) in HEK293 cells (AID 720679); settings: red autofluorescence 540/590 nm
Outline: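 Red-channel autofluorescence (Ex/Em 540/590 nm; Rose Bengal sodium reference) was measured after overnight 37C, 5% CO2 exposure of attached HEK293 cells, 2,000 per well in medium with 10% dialyzed FBS.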

[8] = qHTS assay to test for compound auto fluorescence at 535 nm (green) in HEK293 cells (AID 720680); settings: green autofluorescence 485/535 nm
[9] = qHTS assay to test for compound auto fluorescence at 460 nm (blue) in HEK293 cell free culture (AID 720681); settings: cell-free medium, autofluorescence 405/460 nm (blue)
Outline: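 Test compounds were pinned into cell-free culture medium (DMEM with 10% FBS) and fluorescence was read directly at Ex/Em 405/460 nm. Signals were expressed as fluorescence equivalents of triamterene, with DMSO vehicle as control.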

[10] = qHTS assay for small molecule disruptors of the mitochondrial membrane potential (AID 720635); also: potency is read from the fitted curve at half-maximal effect
[11] = at 91.3 µM (top of the series) unless noted
% is scaled to controls: 0 for no effect and ±100 for the full control effect.

O=P(Cl)(Oc1ccccc1)Oc1ccccc1
inactive: activation [1] -1.62% | activity change, negative = cytotoxicity [2] 19.9% | Potency [3] | Potency [4] | fluorescence, % of fluorescein control [5, 11] 0.0743% | fluorescence, % of triamterene [6, 11] 0.0439% | fluorescence, % of fluorescent control [7, 11] 0.139% | fluorescence, % of fluorescein [8, 11] 0.0327% | fluorescence, % of fluorescent control [9, 11] 0.0104%

O=[P+](Oc1ccccc1)Oc1ccccc1
inactive: activation [1] 2% | activity change, negative = cytotoxicity [2] -10.9% | Potency [3] | Potency [4] | Potency [10] | fluorescence, % of fluorescein control [5, 11] 0.0016% | fluorescence, % of triamterene [6, 11] -0.288% | fluorescence, % of fluorescent control [7, 11] -0.504% | fluorescence, % of fluorescein [8, 11] -0.02% | fluorescence, % of fluorescent control [9, 11] -0.118%

COC(=O)Cl
inactive: activation [1] -2.05% | activity change, negative = cytotoxicity [2] 19.2% | Potency [3] | Potency [4] | Potency [10] | fluorescence, % of fluorescein control [5, 11] 0.0166% | fluorescence, % of triamterene [6, 11] 0.0188% | fluorescence, % of fluorescent control [7, 11] -0.282% | fluorescence, % of fluorescein [8, 11] 0.017% | fluorescence, % of fluorescent control [9, 11] 0.134%

NC(=O)Nc1ccc([As](=O)(O)O)cc1
inactive: activation [1] -3.09% and 0.812% | activity change, negative = cytotoxicity [2] -8.42% and 11.4% | Potency [3] | Potency [10] | fluorescence, % of fluorescein control ([5]; at 46 µM (top of the series)) 0.0833% | fluorescence, % of fluorescein control ([5]; at 91.3 µM (top of the series)) 0.118% | fluorescence, % of triamterene ([6]; at 46 µM (top of the series)) -0.138% | fluorescence, % of triamterene ([6]; at 91.3 µM (top of the series)) 0.0092% | fluorescence, % of fluorescent control ([7]; at 46 µM (top of the series)) -0.077% | fluorescence, % of fluorescent control ([7]; at 91.3 µM (top of the series)) 0.529% | fluorescence, % of fluorescein ([8]; at 46 µM (top of the series)) -0.213% | fluorescence, % of fluorescein ([8]; at 91.3 µM (top of the series)) 0.127% | fluorescence, % of fluorescent control ([9]; at 46 µM (top of the series)) -0.106% | fluorescence, % of fluorescent control ([9]; at 91.3 µM (top of the series)) 0.0321%

CN(C(=O)Cc1ccccc1)[C@H]1CC[C@@]2(CCCO2)C[C@@H]1N1CCCC1
inactive: activation [1] -3.89% | activity change, negative = cytotoxicity [2] -9.46% | Potency [3] | Potency [4] | fluorescence, % of fluorescein control [5, 11] 0.186% [at 46 µM] | fluorescence, % of triamterene [6, 11] 0.457% [at 46 µM] | fluorescence, % of fluorescent control [7, 11] 0.0754% [at 46 µM] | fluorescence, % of fluorescein [8, 11] 0.224% [at 46 µM] | fluorescence, % of fluorescent control [9, 11] 0.669% [at 46 µM]

CC(C)OP(=S)(OC(C)C)SCCNS(=O)(=O)c1ccccc1
active: Potency [10] 12.2 µM
inactive: activity change, negative = cytotoxicity [2] -24.1% | Potency [3] | fluorescence, % of fluorescein control [5, 11] 0.114% | fluorescence, % of triamterene [6, 11] 0.0173% | fluorescence, % of fluorescent control [7, 11] -0.119% | fluorescence, % of fluorescein [8, 11] 0.15% | fluorescence, % of fluorescent control [9, 11] -0.0424%

CCOC(=O)Cl
inactive: activity change, negative = cytotoxicity [2] -11.1% | Potency [3] | Potency [4] | fluorescence, % of fluorescein control [5, 11] -0.0028% | fluorescence, % of triamterene [6, 11] -0.212% | fluorescence, % of fluorescent control [7, 11] 0.0814% | fluorescence, % of fluorescein [8, 11] -0.0064% | fluorescence, % of fluorescent control [9, 11] 0.046%

O=[N+]([O-])c1ccc(S(=O)(=O)O)c([N+](=O)[O-])c1
inactive: activity change, negative = cytotoxicity [2] 11.5% [at 95.3 µM] | Potency [4] | fluorescence, % of fluorescein control [5, 11] -0.0484% | fluorescence, % of triamterene [6, 11] 0.0557% | fluorescence, % of fluorescent control [7, 11] 0.267% | fluorescence, % of fluorescein [8, 11] -0.0631% | fluorescence, % of fluorescent control [9, 11] -0.0013%

O=P(Cl)(Cl)c1ccccc1
inactive: activity change, negative = cytotoxicity [2] 20.3% | Potency [3] | Potency [4] | Potency [10] | fluorescence, % of fluorescein control [5, 11] 0.0048% | fluorescence, % of triamterene [6, 11] -0.0086% | fluorescence, % of fluorescent control [7, 11] -0.522% | fluorescence, % of fluorescein [8, 11] 0.0615% | fluorescence, % of fluorescent control [9, 11] -0.0016%

COP(=S)(Cl)OC
inactive: activation [1] -4.89% [at 95.1 µM] | activity change, negative = cytotoxicity [2] 12.3% [at 95.3 µM] | Potency [3] | Potency [4] | fluorescence, % of fluorescein control [5, 11] -0.271% | fluorescence, % of triamterene [6, 11] -0.0482% | fluorescence, % of fluorescent control [7, 11] 0.155% | fluorescence, % of fluorescein [8, 11] -0.134% | fluorescence, % of fluorescent control [9, 11] -0.383%

CCCCCCCCCCCCCC[P+](CCCCCC)(CCCCCC)CCCCCC
active: Potency [10] 0.272 µM
inactive: fluorescence, % of fluorescein control [5, 11] 0.0081% | fluorescence, % of triamterene [6, 11] -0.071% | fluorescence, % of fluorescent control [7, 11] 0.084% | fluorescence, % of fluorescein [8, 11] 0.0033% | fluorescence, % of fluorescent control [9, 11] -0.0458%

CCCCO[P+](=O)OCCCC
inactive: activation [1] -1.83% | activity change, negative = cytotoxicity [2] -2.06% and 5.34% | Potency [3] | Potency [4] | Potency [10] | fluorescence, % of fluorescein control [5, 11] -0.0242% and 0.032% | fluorescence, % of triamterene [6, 11] -0.0037% and -0.132% | fluorescence, % of fluorescent control [7, 11] 0.062% and 0.123% | fluorescence, % of fluorescein [8, 11] -0.0131% and 0.0112% | fluorescence, % of fluorescent control [9, 11] 0.0243% and -0.0614%

Cc1cc([N+](=O)[O-])c(O)c([N+](=O)[O-])c1
active: Potency [10] 21.9 µM
inactive: activity change, negative = cytotoxicity [2] -7.86% [at 95.3 µM] | Potency [4] | fluorescence, % of fluorescein control [5, 11] -0.634% | fluorescence, % of triamterene [6, 11] -0.928% | fluorescence, % of fluorescent control [7, 11] 0.0659% | fluorescence, % of fluorescein [8, 11] -0.485% | fluorescence, % of fluorescent control [9, 11] -0.964%
